Data: patent US6703417B2, “Aqueous-prodrug compound comprising moiety of paclitaxel or derivatives thereof, method of preparing same and pharmaceutical composition comprising same” (Kolon Industries, Inc., priority 2000, dated 2004)

details: in 1 ml of distilled water; amount at which fluidity occurs and haze is 0.5 or less

Row | Substance | Amount of dissolving
1 | 7-mPEG 5000-succinyloxymethyloxycarbonyl-paclitaxel [Example 6] | 400 mg or more
2 | 2′-monomethoxypolyethyleneglycol 20000-succinyloxymethyloxycarbonyl-paclitaxel [Example 8] | 400 mg or more
3 | 7-monomethoxypolyethyleneglycol 5000-succinylthiomethyloxy carbonyl-paclitaxel) [Example 12] | 400 mg or more
4 | 2′-monomethoxypolyethyleneglycol 5000-succinyloxymethyloxycarbonyl-paclitaxel [Example 2] | 400 mg or more
5 | 7-polyethyleneglycol 6000-di(succinyloxymethyloxycarbonyl-paclitaxel) [Example 7] | 400 mg or more
6 | 2′-polyethyleneglycol 20000-di(succinyloxymethyloxycarbonyl-paclitaxel) [Example 9] | 400 mg or more
7 | 7-polyethyleneglycol 20000-di(succinyloxymethyloxycarbonyl-paclitaxel [Example 11] | 400 mg or more
8 | 7-monomethoxypolyethyleneglycol 20000-succinyloxymethyloxycarbonyl-paclitaxel [Example 10] | 400 mg or more
